Counter-ions that a name gives are not always drawn.
Columns and labels:
[1] = target: T1, cGMP-dependent 3',5'-cyclic phosphodiesterase [574-941] (Homo sapiens, UniProt O00408); assay: Phosphodiesterase (PDE) Inhibition Assay
T1 construct: 574-941

Protein sequences, listed by entry. Tags and fused reporters are not part of them. Residues count along the entry.
UniProt O00408, 574-941: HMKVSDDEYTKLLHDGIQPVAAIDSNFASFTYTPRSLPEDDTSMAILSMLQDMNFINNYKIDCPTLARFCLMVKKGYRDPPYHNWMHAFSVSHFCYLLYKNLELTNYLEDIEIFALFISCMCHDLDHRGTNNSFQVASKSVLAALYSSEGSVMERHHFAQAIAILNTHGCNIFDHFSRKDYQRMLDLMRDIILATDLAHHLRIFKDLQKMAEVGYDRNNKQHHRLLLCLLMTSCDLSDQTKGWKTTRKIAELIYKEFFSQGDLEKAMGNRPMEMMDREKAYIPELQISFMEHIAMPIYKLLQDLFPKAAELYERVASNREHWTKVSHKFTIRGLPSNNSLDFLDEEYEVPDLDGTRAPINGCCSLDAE
UniProt O76083, 226-593: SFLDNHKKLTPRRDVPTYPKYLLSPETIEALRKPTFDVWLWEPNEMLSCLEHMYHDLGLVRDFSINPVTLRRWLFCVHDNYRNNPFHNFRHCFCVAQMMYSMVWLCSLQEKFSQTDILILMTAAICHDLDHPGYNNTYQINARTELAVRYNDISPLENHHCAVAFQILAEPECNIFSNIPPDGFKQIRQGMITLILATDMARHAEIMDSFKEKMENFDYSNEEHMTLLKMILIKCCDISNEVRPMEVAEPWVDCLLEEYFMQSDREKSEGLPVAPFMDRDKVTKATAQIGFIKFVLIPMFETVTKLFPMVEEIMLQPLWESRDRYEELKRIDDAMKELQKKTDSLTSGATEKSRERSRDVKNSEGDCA

[2] = target: T2, High affinity cGMP-specific 3',5'-cyclic phosphodiesterase 9A [226-593] (Homo sapiens, UniProt O76083)
T2 construct: 226-593

Question: CCCc1nn(C)c2c(=O)[nH]c(-c3cc(S(=O)(=O)N4CCN(C)CC4)ccc3OCC)nc12 [SILDENAFIL CITRATE] was tested. Which IC50 [1] did it give?
Answer: 35 µM

Question: What about the IC50 [2] of the same compound?
Answer: 5.6 µM

Reference: BindingDB's records for doi:10.1016/j.str.2004.10.004 (Plexxikon, 2004)
